This is an account of results in paper PMC9669179 (Epilepsia, 2022).

The conditions of the series: CF-1, mouse, in vivo.

For `CCCC(CCC)C(=O)O` [VPA, sodium valproate], the “Plasma Dose Prop (AUC)” value came out at 1.48.
